In PubChem BioAssay AID624246 (National Center for Advancing Translational Sciences (NCATS), 2012) one finds FP activity, negative = inhibition data, which are given here for two molecules.

Sequences of proteins named here, by UniProt entry; tags and fusion partners are left off.
UniProt P11308, whole entry: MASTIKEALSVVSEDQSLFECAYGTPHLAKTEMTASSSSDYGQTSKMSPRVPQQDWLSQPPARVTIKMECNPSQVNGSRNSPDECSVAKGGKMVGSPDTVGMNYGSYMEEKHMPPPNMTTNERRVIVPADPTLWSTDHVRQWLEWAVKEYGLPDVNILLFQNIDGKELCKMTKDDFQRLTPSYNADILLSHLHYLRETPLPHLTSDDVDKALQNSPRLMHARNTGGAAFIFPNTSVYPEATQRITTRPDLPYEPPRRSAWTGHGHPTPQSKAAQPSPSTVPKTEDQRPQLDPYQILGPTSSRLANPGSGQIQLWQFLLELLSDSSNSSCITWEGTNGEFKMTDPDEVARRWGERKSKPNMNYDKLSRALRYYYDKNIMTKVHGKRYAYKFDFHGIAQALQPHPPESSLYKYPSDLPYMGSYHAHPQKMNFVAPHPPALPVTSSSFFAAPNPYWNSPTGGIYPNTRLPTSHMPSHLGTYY

Structures are written as SMILES. The list shows a part of the results, in another mix than the full data. The source made the active and inactive calls. The call rests on the fitted dose curve; in most records, active means well fitted inhibition curve with a large enough effect in the polarisation, with a control signal flat; inconclusive means small, poorly fitted or top-dose-only effect, or effect the other way, or a change in a side signal; inactive means no such curve, though single readings can be large or run the other way; the % refers to the polarisation.

The target of the assay is Transcriptional regulator ERG (Homo sapiens) (UniProt P11308). Put plainly: qHTS for Small Molecule Inhibitors of the ERG Ets/DNA interaction. Further: % of control where 0% means no effect. The note with it: fluorescence polarization, His-ERG Ets domain / labelled DNA; at 76.9 µM (top of the series). From the text:
The Ets family of proteins is a family of ~30 conserved transcription factors defined by the presence of an ~85 amino acid domain referred to as the Ets domain, which mediates sequence-specific DNA binding to a core DNA element GGAA/T.The Ets family member ERG has been linked to several neoplasms. […] More extensive studies of the effects of over-expression of ERG in prostate cells have recently been carried out and have shown that over-expression of ERG results in increased invasion. […] We will carry out a high throughout screen to identify inhibitors of the interaction between ERG and DNA using a fluorescence polarization (FP) assay with a His-tagged ERG Ets domain and fluorescently-labeled DNA probes to develop small molecule inhibitors of this interaction as probes to test this hypothesis and lay the groundwork for the development of targeted therapies against ERG. NIH Molecular Libraries Probe Production Network [MLPCN] NIH Chemical Genomics Center [NCGC] […]
1.5 ul of protein solution (1 uM ERG domain in 300mM KCl, 50mM Tris-HCl, 1mM EDTA, 1mM DTT, pH 7.5); 20 nl Control plate and compound library plate; 1.5 ul mixture of 5 nM Fluorescein-DNA and 100nM Texas-615-DNA solution in same buffer as above solution; measure fluorescence polarization sequentially for fluorescein (Excitation = 480 nm, Emission = 535s, 535p nm) and Texas red (Excitation = 555 nm, Emission = 632s, 632p nm).
Consider `CCC(=O)N(c1ccccc1)C1(COC)CCN(CCn2nnn(CC)c2=O)CC1`, for which the FP activity, negative = inhibition is inactive: -27%.

For `CCC(=O)N(c1ccccc1)C1(COC)CCN(CCc2cccs2)CC1`, the FP activity, negative = inhibition is inactive: 7.05%.
